# Experimental data: patent US9952217B2, “Anti-HBc quantitative detection method and uses thereof in monitoring and controlling disease progression of chronic hepatitis B patient and in predicting therapeutic effect” (priority 2012, dated 2018)
# Test system: hepatitis B virus
# Assay: Peginterferon alpha-2a therapy of HBeAg positive chronic hepatitis B patients (Cohort B)
# Assay type: in vivo, human
# Method: Patient cohort B: 48 HBeAg positive patients, all patients accepted therapy of peginterferon alpha-2a (long-acting interferon α-2a, 180 μg/week), for 24 weeks in total, and were follow-up visited for 24 weeks after stop of therapy.
# The above patients before therapy all met the criteria of disease adaptable for therapy as recommended by the Guide of Clinical Management of Chronic Hepatitis B of APASL: HBsAg was positive for consecutive 1 year or more, HBeAg was positive and anti-HBe was negative, serum ALT level was higher than 2 times of ULN; the patients were chosen to exclude possibility of having accompanied infection of hepatitis C virus (HCV), human immunodeficiency virus (HIV), hepatitis D virus (HDV), hepatitis E virus (HEV), and have no clinical medicine evidence of having accompanied autoimmune or metabolic liver diseases.
# It was performed according to the method described in section 4.2 of Example 4.
# It was performed according to the method described in section 4.3 of Example 4.
# Main therapeutic end was defined when HBeAg seroconversion occurred at follow-up visit end.
# All statistic methods were performed according to those described in Example 4.
substance,measurement,setting,value
peginterferon alpha-2a [long-acting interferon],therapeutic effective rate (HBeAg seroconversion at follow-up visit end),"all 48 patients, 180 μg/week for 24 weeks, follow-up 24 weeks after stop",47.9%
same,response rate (HBeAg seroconversion after therapy),baseline anti-HBc 9000-29000 IU/ml (n=10),60.0%
same,response rate (HBeAg seroconversion after therapy),baseline anti-HBc ≥29000 IU/ml (n=15),66.7%
same,"ratio of occurrence rates (Risk Ratio, RR) of HBeAg seroconversion between high and low anti-HBc groups",cutoff 9000 IU/ml baseline anti-HBc,2.10
same,effective rate (HBeAg seroconversion at follow-up visit end),patients with baseline anti-HBc greater than 9000 IU/ml (n=25),64.0%
same,effective rate (HBeAg seroconversion at follow-up visit end),patients with baseline anti-HBc less than 9000 IU/ml (n=23),30.4%
